Assay results from patent US10023561B2, “Fumagillol heterocyclic compounds and methods of making and using same” (Zafgen, Inc., priority 2015, dated 2018).

What follows are molecules tested on human fibrosarcoma cell line HT-1080 (assay: HT-1080 cell proliferation assay (CellTiter-Glo, 72 hours)). Conditions: HT-1080, 72 h, read-out: HT-1080 EC50 (nM).
Format: cell-based

Compound	EC50 [nM]
CO[C@@H]1[C@H](OC(=O)N2CC(CCN3CCOCC3)C2)CC[C@]2(CO2)[C@H]1[C@@]1(C)O[C@@H]1CC=C(C)C [Example 1, (3R,4S,5S,6R)-5-methoxy-4-((2R,3R)-2-methyl-3-(3-methylbut-2-en-1-yl)oxiran-2-yl)-1-oxaspiro[2.5]octan-6-yl 3-(2-morpholinoethyl)azetidine-1-carboxylate]	< 0.3
CO[C@@H]1[C@H](OC(=O)N2CC(CCN3CC(F)(F)C3)C2)CC[C@]2(CO2)[C@H]1[C@@]1(C)O[C@@H]1CC=C(C)C [Example 2, (3R,4S,5S,6R)-5-methoxy-4-((2R,3R)-2-methyl-3-(3-methylbut-2-enyl)oxiran-2-yl)-1-oxaspiro[2.5]octan-6-yl 3-(2-(3,3-difluoroazetidin-1-yl)ethyl)azetidine-1-carboxylate]	< 0.3
CO[C@@H]1[C@H](OC(=O)N2CC(OC(=O)N3CCOCC3)C2)CC[C@]2(CO2)[C@H]1[C@@]1(C)O[C@@H]1CC=C(C)C [Example 71, 1-(((3R,4S,5S,6R)-5-methoxy-4-((2R,3R)-2-methyl-3-(3-methylbut-2-enyl)oxiran-2-yl)-1-oxaspiro[2.5]octan-6-yloxy)carbonyl)azetidin-3-yl morpholine-4-carboxylate formate]	< 0.3
CO[C@@H]1[C@H](OC(=O)N2CC(OC(=O)N3CCN(C)CC3)C2)CC[C@]2(CO2)[C@H]1[C@@]1(C)O[C@@H]1CC=C(C)C [Example 78, 1-(((3R,4S,5S,6R)-5-methoxy-4-((2R,3R)-2-methyl-3-(3-methylbut-2-enyl)oxiran-2-yl)-1-oxaspiro[2.5]octan-6-yloxy)carbonyl)azetidin-3-yl 4-methylpiperazine-1-carboxylate]	0.3 to 1.3
CO[C@@H]1[C@H](OC(=O)N2CC(OC(=O)N3CCN(CC(F)(F)F)CC3)C2)CC[C@]2(CO2)[C@H]1[C@@]1(C)O[C@@H]1CC=C(C)C [Example 81, 1-(((3R,4S,5S,6R)-5-methoxy-4-((2R,3R)-2-methyl-3-(3-methylbut-2-enyl)oxiran-2-yl)-1-oxaspiro[2.5]octan-6-yloxy)carbonyl)azetidin-3-yl 4-(2,2,2-trifluoroethyl)piperazine-1-carboxylate]	0.3 to 1.3
CO[C@@H]1[C@H](OC(=O)N2CC(CCC3CCN(CC(F)F)CC3)C2)CC[C@]2(CO2)[C@H]1[C@@]1(C)O[C@@H]1CC=C(C)C [Example 91, (3R,4S,5S,6R)-5-methoxy-4-((2R,3R)-2-methyl-3-(3-methylbut-2-enyl)oxiran-2-yl)-1-oxaspiro[2.5]octan-6-yl 3-(2-(1-(2,2-difluoroethyl)piperidin-4-yl)ethyl)azetidine-1-carboxylate formate]	0.3 to 1.3
CO[C@@H]1[C@H](OC(=O)N2CC(Cc3ccc(C)nc3)C2)CC[C@]2(CO2)[C@H]1[C@@]1(C)O[C@@H]1CC=C(C)C [Example 101, (3R,4S,5S,6R)-5-methoxy-4-((2R,3R)-2-methyl-3-(3-methylbut-2-enyl)oxiran-2-yl)-1-oxaspiro[2.5]octan-6-yl 3-((6-methylpyridin-3-yl)methyl)azetidine-1-carboxylate]	0.3 to 1.3
CCN(CC)CCCC1CN(C(=O)O[C@@H]2CC[C@]3(CO3)[C@@H]([C@@]3(C)O[C@@H]3CC=C(C)C)[C@@H]2OC)C1 [Example 104, (3R,4S,5S,6R)-5-methoxy-4-((2R,3R)-2-methyl-3-(3-methylbut-2-enyl)oxiran-2-yl)-1-oxaspiro[2.5]octan-6-yl 3-(3-(diethylamino)propyl)azetidine-1-carboxylate]	< 0.3
CO[C@@H]1[C@H](OC(=O)/C=C/c2ccc(OCCN(C)C)cc2)CC[C@]2(CO2)[C@H]1[C@@]1(C)O[C@@H]1CC=C(C)C [compound A, [(3R,6R,7S,8S)-7-methoxy-8-[(2R,3R)-2-methyl-3-(3-methylbut-2-enyl)oxiran-2-yl]-2-oxaspiro[2.5]octan-6-yl] (E)-3-[4-[2-(dimethylamino)ethoxy]phenyl]prop-2-enoate, reference compound]	0.3 to 1.3

Structures can show the parent of a compound that is named as a salt.
